The chains behind the UniProt entries cited, without tags or fusion partners.
UniProt P04049, whole entry Y340E/Y341E: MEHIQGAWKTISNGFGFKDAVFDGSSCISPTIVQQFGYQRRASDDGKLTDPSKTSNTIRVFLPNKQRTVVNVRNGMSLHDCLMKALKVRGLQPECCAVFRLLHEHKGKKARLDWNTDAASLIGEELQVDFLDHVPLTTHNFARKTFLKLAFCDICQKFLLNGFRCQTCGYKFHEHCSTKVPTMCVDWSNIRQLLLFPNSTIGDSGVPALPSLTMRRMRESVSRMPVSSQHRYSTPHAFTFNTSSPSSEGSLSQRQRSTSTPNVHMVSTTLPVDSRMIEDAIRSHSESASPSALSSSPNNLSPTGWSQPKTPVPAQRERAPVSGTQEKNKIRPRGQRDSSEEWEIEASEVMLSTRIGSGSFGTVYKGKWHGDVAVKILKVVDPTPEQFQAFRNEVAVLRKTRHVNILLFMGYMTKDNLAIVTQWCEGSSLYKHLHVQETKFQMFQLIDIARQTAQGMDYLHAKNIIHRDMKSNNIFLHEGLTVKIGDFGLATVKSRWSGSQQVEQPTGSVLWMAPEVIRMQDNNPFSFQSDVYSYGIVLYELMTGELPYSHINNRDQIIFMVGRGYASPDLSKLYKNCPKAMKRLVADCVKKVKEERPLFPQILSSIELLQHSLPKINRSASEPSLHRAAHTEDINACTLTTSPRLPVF

According to patent US9242969B2, “Biaryl amide compounds as kinase inhibitors” (Novartis AG, priority 2013, dated 2016):

Target: C-Raf FL (full-length C-Raf with Y340E and Y341E activating mutations) (Homo sapiens (Human), UniProt P04049, Y340E/Y341E)
Assay type: biochemical
Details: not given

Compound	IC50 [pM]
Cc1ccc(NC(=O)c2cccc(C(F)(F)F)c2)cc1-c1cc(N2CCOCC2)nc(-n2cc(C(C)(C)O)nn2)n1 [Example 37, N-(3-(2-(4-(2-hydroxypropan-2-yl)-1H-1,2,3-triazol-1-yl)-6-morpholinopyrimidin-4-yl)-4-methylphenyl)-3-(trifluoromethyl)benzamide]	198

Same assay, conditions: full-length c-Raf 4 pM, ATP 3 uM, 10 nM biotinylated MEK1 kinase dead

Compound	IC50 [pM]
Cc1ncc(NC(=O)c2cncc(N(C)C)c2)cc1-c1ccnc(N2CCOCC2)c1 [Example 81, 5-(dimethylamino)-N-(2-methyl-2′-morpholino-[3,4′-bipyridin]-5-yl)nicotinamide]	1450
Cc1ccc(NC(=O)c2cccc(C(F)(F)F)c2)cc1-c1cn2ccnc2c(N2CCOC[C@H]2C)n1 [Example 205]	185
Cc1ccc(NC(=O)c2ccnnc2)cc1-c1ccnc(N2CCOCC2)c1 [Example 72, N-(4-methyl-3-(2-morpholinopyridin-4-yl)phenyl)pyridazine-4-carboxamide]	78000
Cc1ccc(NC(=O)c2cccc(C(F)(F)F)c2)cc1-c1cc(N2CCOCC2)cn(C)c1=O [Example 123, N-(4-methyl-3-(1-methyl-5-morpholino-2-oxo-1,2-dihydropyridin-3-yl)phenyl)-3-(trifluoromethyl)benzamide]	4810
Cc1ccc(C(=O)Nc2cccc(C(F)(F)F)c2)cc1-c1cc(N2CCOCC2=O)nc(N2CCOCC2)n1 [Example 4, 4-methyl-3-(2-morpholino-6-(3-oxomorpholino)pyrimidin-4-yl)-N-(3-(trifluoromethyl)phenyl)benzamide]	431
Cc1ccc(NC(=O)c2cccc(C(F)(F)F)c2)cc1-c1cc(N2CC3(COC3)C2)nc(N2CCOCC2)n1 [Example 47, N-(4-methyl-3-(2-morpholino-6-(2-oxa-6-azaspiro[3.3]heptan-6-yl)pyrimidin-4-yl)phenyl)-3-(trifluoromethyl)benzamide]	356
Cc1ccc(NC(=O)c2cccc(C(F)(F)F)c2)cc1-c1cc(N2CCO[C@H](C)C2)nc(N2CCOCC2)n1 [Example 53, (R)—N-(4-methyl-3-(6-(2-methylmorpholino)-2-morpholinopyrimidin-4-yl)phenyl)-3-(trifluoromethyl)benzamide]	651
Cc1ccc(NC(=O)c2cccnn2)cc1-c1ccnc(N2CCOCC2)c1 [Example 67, N-(4-methyl-3-(2-morpholinopyridin-4-yl)phenyl)pyridazine-3-carboxamide]	77900
Cc1ccc(NC(=O)c2cccc(C(F)(F)F)c2)cc1-c1cc(N2CCOCC2)cnn1 [Example 59, N-(4-methyl-3-(5-morpholinopyridazin-3-yl)phenyl)-3-(trifluoromethyl)benzamide]	432
Cc1ccc(NC(=O)c2ccnc(C(C)(C)C)c2)cc1-c1cc(N2CCOCC2)c(=O)n(C)c1 [Example 139, 2-(tert-butyl)-N-(4-methyl-3-(1-methyl-5-morpholino-6-oxo-1,6-dihydropyridin-3-yl)phenyl)isonicotinamide]	491
CCN1CCN(c2cc(C(=O)Nc3ccc(C)c(-c4cc(N5CCOCC5)c(=O)n(C)c4)c3)cc(C(F)(F)F)c2)CC1 [Example 174, 3-(4-ethylpiperazin-1-yl)-N-(4-methyl-3-(1-methyl-5-morpholino-6-oxo-1,6-dihydropyridin-3-yl)phenyl)-5-(trifluoromethyl)benzamide]	2240
Cc1ccc(NC(=O)c2ccnc(S(C)(=O)=O)c2)cc1-c1cc(N2CCOCC2)c(=O)n(C)c1 [Example 184, N-(4-methyl-3-(1-methyl-5-morpholino-6-oxo-1,6-dihydropyridin-3-yl)phenyl)-2-(methylsulfonyl)isonicotinamide]	479
CCN1CCN(c2cc(C(=O)Nc3ccc(C)c(-c4cc(N5CCOCC5)nc(N5CCOCC5)n4)c3)cc(C(F)(F)F)c2)CC1 [Example 21, N-(3-(2,6-dimorpholinopyrimidin-4-yl)-4-methylphenyl)-3-(4-ethylpiperazin-1-yl)-5-(trifluoromethyl)benzamide]	905
Cc1ncc(NC(=O)c2cccc(C(F)(F)F)c2)cc1-c1cc(N2CCOCC2)c(=O)n(C)c1 [Example 138]	652
Cc1ccc(NC(=O)c2cccc(C(F)(F)F)c2)cc1-c1cc(N2CCOC[C@H]2CO)nc(N2CCOCC2)n1 [Example 48, (R)—N-(3-(6-(3-(hydroxymethyl)morpholino)-2-morpholinopyrimidin-4-yl)-4-methylphenyl)-3-(trifluoromethyl)benzamide]	347
COc1ccc(C(=O)Nc2cnc(C)c(-c3ccnc(N4CCOCC4)c3)c2)cc1C(F)(F)F [Example 97, 4-methoxy-N-(2-methyl-2′-morpholino-[3,4′-bipyridin]-5-yl)-3-(trifluoromethyl)benzamide]	998
Cc1ccc(NC(=O)c2cccc(C(F)(F)F)c2)cc1-c1cc(N2CCOCC2)nc(N2CCC(O)C2)n1 (stereo not shown) [Example 32, N-(3-(2-(3-hydroxypyrrolidin-1-yl)-6-morpholinopyrimidin-4-yl)-4-methylphenyl)-3-(trifluoromethyl)benzamide]	510
Cc1ccc(NC(=O)c2ccnc(C(C)(C)C#N)c2)cc1-c1ccnc(N2CCOC[C@H]2C)c1 [Example 82, (R)-2-(2-cyanopropan-2-yl)-N-(4-methyl-3-(2-(3-methylmorpholino)pyridin-4-yl)phenyl)isonicotinamide]	1770

Results, then the compound that gave them:

IC50 [pM]	Compound
278	Cc1ccc(NC(=O)c2cccc(C(F)F)c2)cc1-c1cc(N2CCOCC2)c(=O)n(C)n1 [Example 186]
230	Cc1ccc(NC(=O)c2cncc(N(C)C)c2)cc1-c1cc(N2CCOCC2)c(=O)n(C)c1 [Example 175, 5-(dimethylamino)-N-(4-methyl-3-(1-methyl-5-morpholino-6-oxo-1,6-dihydropyridin-3-yl)phenyl)nicotinamide]
314	Cc1ccc(NC(=O)c2cccc(C(F)(F)F)c2)cc1-c1cc(C(F)(F)F)nc(N2CCOCC2)n1 [Example 61]
253	Cc1ncc(NC(=O)c2cccc(C(C)(F)F)c2)cc1-c1ccnc(N2CCOCC2)c1 [Example 101, 3-(1,1-difluoroethyl)-N-(2-methyl-2′-morpholino-[3,4′-bipyridin]-5-yl)benzamide]
180	CCn1cc(-c2cc(NC(=O)c3cccc(C(F)(F)F)c3)ccc2C)nc(N2CCOCC2)c1=O [Example 169, N-(3-(4-ethyl-6-morpholino-5-oxo-4,5-dihydropyrazin-2-yl)-4-methylphenyl)-3-(trifluoromethyl)benzamide]
171	Cc1ccc(NC(=O)c2cccc(C(F)(F)F)c2)cc1-c1cc2[nH]cnc2c(N2CCOCC2)n1 [Example 209]
290	Cc1ccc(NC(=O)c2ccnc(C(C)(C)C#N)c2)cc1-c1ccnc(N2CCO[C@H](CO)C2)c1 [Example 83, (S)-2-(2-cyanopropan-2-yl)-N-(3-(2-(2-(hydroxymethyl)morpholino)pyridin-4-yl)-4-methylphenyl)isonicotinamide]
202	Cc1ccc(NC(=O)c2cccc(OC(F)(F)F)c2)cc1-c1cc(N2CCOCC2)nc(N2CCOCC2)n1 [Example 22, N-(3-(2,6-dimorpholinopyrimidin-4-O-4-methylphenyl)-3-trifluoromethoxy)benzamide]
299	COc1ncc(-c2cc(NC(=O)c3cccc(C(F)(F)F)c3)ccc2C)cc1N1CCOCC1 [Example 126, N-(3-(6-methoxy-5-morpholinopyridin-3-yl)-4-methylphenyl)-3-(trifluoromethyl)benzamide]
